Results taken from PubChem BioAssay (NCI).
Some tests of the compounds listed are not included; inactive here does not mean inactive elsewhere.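 1) Cells in 96-well plates. 2) Compound, 48 h, 5 concentrations. 3) Linear interpolation between surrounding doses. 4) Unreached endpoint = highest concentration. GI50 marks 50% less growth.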

Assays:
Assay in all cases: NCI-60 cell line screen, 48 h; in the data active = GI50 below about 0.43 µM; inactive = the rest
[1] = test system: SK-OV-3 ovarian
[2] = test system: MDA-MB-231 breast
[3] = test system: SK-MEL-28 melanoma
[4] = test system: RPMI-8226 leukemia
[5] = test system: NCI-H23 lung
[6] = test system: SK-MEL-2 melanoma
[7] = test system: ACHN renal
[8] = test system: U251 CNS
[9] = test system: OVCAR-8 ovarian
[10] = test system: M14 melanoma
[11] = test system: SF-539 CNS
[12] = test system: IGROV1 ovarian
[13] = test system: SF-268 CNS
[14] = test system: MALME-3M melanoma
[15] = test system: NCI-H522 lung
[16] = test system: NCI-H460 lung
[17] = test system: T-47D breast
[18] = test system: SF-295 CNS
[19] = test system: UO-31 renal
[20] = test system: OVCAR-3 ovarian
[21] = test system: NCI/ADR-RES ovarian
[22] = test system: HCC-2998 colon
[23] = test system: HS 578T breast
[24] = test system: SNB-19 CNS
[25] = test system: EKVX NSCLC
[26] = test system: SNB-75 CNS
[27] = test system: BT-549 breast
[28] = test system: OVCAR-4 ovarian
[29] = test system: A498 renal
[30] = test system: NCI-H226 lung
[31] = test system: OVCAR-5 ovarian
[32] = test system: CAKI-1 renal
[33] = test system: LOX IMVI melanoma
[34] = test system: PC-3 prostate
[35] = test system: A549 NSCLC
[36] = test system: TK-10 renal
[37] = test system: RXF 393 renal
[38] = test system: HCT-116 colon
[39] = test system: HCT-15 colon
[40] = test system: UACC-62 melanoma
[41] = test system: SW-620 colon
[42] = test system: DU-145 prostate
[43] = test system: MCF7 breast
[44] = test system: CCRF-CEM leukemia
[45] = test system: MOLT-4 leukemia
[46] = test system: SK-MEL-5 melanoma
[47] = test system: COLO 205 colon
[48] = test system: SN12C renal
[49] = test system: K-562 leukemia
[50] = test system: UACC-257 melanoma
[51] = test system: HL-60(TB) leukemia
[52] = test system: MDA-N
[53] = test system: HT29 colon
[54] = test system: KM12 colon
[55] = test system: MDA-MB-435
[56] = test system: 786-0 renal
[57] = test system: SR leukemia
[58] = test system: HOP-92 NSCLC
[59] = test system: HOP-62 NSCLC
[60] = test system: NCI-H322M lung

Measured: GI50

CN1CCC(OC(=O)C(O)(c2ccccc2)c2cccc3c2OC(C)(C)C3)CC1 (stereo not given)
inactive: [1] > 100 µM | [2] 39.3 µM | [3] 19.6 µM | [4] 29.5 µM | [5] > 100 µM | [6] 47.2 µM | [7] 66.7 µM | [8] 60.4 µM | [9] 93.2 µM | [10] 17.1 µM | [11] 34.9 µM | [12] 26.1 µM | [13] 70.7 µM | [14] 19.5 µM | [15] 48.7 µM | [16] 45.5 µM | [17] 57.8 µM | [18] 59.7 µM | [19] 39.9 µM | [20] 63.8 µM | [21] 90.8 µM | [22] 28.5 µM | [23] 22.8 µM | [24] > 100 µM | [25] > 100 µM | [26] 20.2 µM | [27] 84.6 µM | [28] 88.4 µM | [29] 73.7 µM | [30] > 100 µM | [31] 87.6 µM | [32] 77.8 µM | [33] 29.7 µM | [34] 44.4 µM | [35] 95.8 µM | [36] 63.2 µM | [37] 19.9 µM | [38] 50.4 µM | [39] > 100 µM | [40] 41.7 µM | [41] > 100 µM | [42] 88.6 µM | [43] > 100 µM | [44] 46.3 µM | [45] 28.1 µM | [46] 17.3 µM | [47] 21 µM | [48] > 100 µM | [49] 30.4 µM | [50] 19.1 µM | [51] 29.8 µM | [52] 53.4 µM | [53] 24.7 µM | [54] 82 µM | [55] 44.9 µM | [56] 80.8 µM | [57] 23.1 µM | [58] 25.3 µM | [59] 100 µM | [60] > 100 µM
